# Ab-14 heavy chain CDR variants: yeast mating affinities

Reference: Engelhart et al. 2022, doi:10.1038/s41597-022-01779-4. File: FLAb, binding data.

Antigen: PDVDLGDISGINAS, a 14-residue peptide of the SARS-CoV-2 spike HR2 region.

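The library (AAYL49) carries one to three amino acid substitutions per variant, with no insertions or deletions. In AlphaSeq, yeast of one mating type display the scFv and yeast of the other type display the target. The frequency of each diploid, read from paired DNA barcodes, reflects how well the two displayed proteins bind. Read counts were normalised to the haploid input and turned into Kd by a linear fit to BCL2-family pairs of known affinity, for each replicate. The assay was run in three technical replicates.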

Each scFv is VH, three GGGGS repeats, VL, as in the parent Ab-14, and differs from it in the CDRs of the heavy chain only.
VH: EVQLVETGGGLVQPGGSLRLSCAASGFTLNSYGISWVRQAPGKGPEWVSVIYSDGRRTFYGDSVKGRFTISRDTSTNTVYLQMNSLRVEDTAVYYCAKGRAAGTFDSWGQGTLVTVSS
VL: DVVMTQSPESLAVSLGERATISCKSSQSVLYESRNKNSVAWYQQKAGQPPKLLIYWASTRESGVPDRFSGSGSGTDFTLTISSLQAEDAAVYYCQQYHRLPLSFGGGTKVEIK

Variants are written as CDR1, CDR2 and CDR3 of the heavy chain (limits as in the source). Parent: GFTLNSYGIS, VIYSDGRRTFYGDSVK, GRAAGTFDS.
Values are log10 of the apparent Kd in nM; lower means stronger binding.
Averages over replicates are reported, and they cover detected replicates only.
Where no diploid with the target was found in any replicate, the entry reads "no signal": below detection, most likely a poor binder, though not proof of it.
Nonspecific signal, from three strains lacking the peptide, appeared in 15% of pairings of library AAYL49, centred on 4.06 (5% of these signals below 2.83); values are not corrected for it.
For reference, the parent read 0.65 as the reference entry and 4.11 (one replicate of three) as a member of this library.

CDR-H1	CDR-H2	CDR-H3	mean log10 Kd (nM)	seen in
GFTLNSYGIS	VIYSDGRRVCYGDSVK	GRAMGTFDS	4.59	2/3
GQTLNSYGIS	VIYSDGRRTFYGDPVK	GRAAQTFDS	no signal	0/3
GFTLNSYGIL	VIYSDGRRTFYGDSVK	GNAAGTFDR	5.84	2/3
FFTLNSYGIS	VIYSSGRRCFYGDSVK	GRAAGTFDS	no signal	0/3
GFTLWSYGIS	VIYSDGSRTFYGDSVK	GRAACTFDS	no signal	0/3
GFTLNSYGSS	VIYTDARRTFYGDSVK	GRAAGTFDS	4.21	1/3
GFTLNSYGIS	VIYSDGRRTFYGDGWK	GRAAGTFDG	3.37	1/3
GFTLNSYGIS	VIYSDGRRTFYGDSDK	GFAAGTFCS	no signal	0/3
GFTLNSYGIS	VIYSDGRRTFYGMSSK	GRWAGTFDS	no signal	0/3
GFTLNSYWIS	VIYSDGRRTFYGDSVK	GIAAGTFDS	3.95	1/3
GHTLNSYGIN	VIYSDGRRHFYGDSVK	GRAAGTFDS	4.64	1/3
GFTLNSYGIS	VIYSDGRRTMYGDSVK	GRAAGPFDS	4.10	1/3
GFTLNSYGIS	VIYTPGRRTEYGDSVK	GRAAGTFDS	no signal	0/3
GFTLNSYGIS	VIYSDGRRTFYVDSVV	GRAAGTFDS	1.96	3/3
DFTLNSYGIS	VIYSDGDRTFYGDLVK	GRAAGTFDS	5.47	1/3
GFTLNSYGIS	FIYSDWRRTFYGDSVK	GRAGGTFDS	no signal	0/3
GFTLNSYGES	VIYSDGERTFYGDCVK	GRAAGTFDS	no signal	0/3
GFTLNSYGIS	VIYSDGRRTLYGWSVK	GRAQGTFDS	no signal	0/3
GFTKNSYGIS	VDYSAGRRTFYGDSVK	GRAAGTFDS	no signal	0/3
GFTDNSYGIS	VIHSDGRRTFYGDSVK	GRAAGTFIS	no signal	0/3
GFTSNSYGIS	VIYSDGRRTFYGDSVT	GRMAGTFDS	4.18	1/3
GFTLNSYGIS	VIYSDGRRDFYGDSVK	GRAAGTLAS	3.24	1/3
GFTLNSDGIS	VIYSDGRRTFYGDSVK	GRAAGFFDS	no signal	0/3
GFTLNSYGIS	VDYSDGRRTFYGDSVK	GVAFGTFDS	3.81	2/3
GFKLNSYGIS	VIYSDGRRTFYGDSVK	GRAAGTMFS	no signal	0/3
GFILNSYGIS	DIYSDGRRTFYGDSVK	GRAAGTFDS	no signal	0/3
GATLNSYGIS	VIYSDGQRTFYGDSIK	GRAAGTFDS	2.00	2/3
GITLNSYGIS	VIYSDGRRTFYFDSVK	GRAAGTFDS	no signal	0/3
GFTLNSYGIS	VNYSDGRRTCYGDSVK	KRAAGTFDS	4.73	1/3
GFTKNSYGIS	VIYSDGMRTFYGDSVK	GRAAGTFDS	4.66	3/3
GFTLNSYGIW	VGYSDGRRTFYGDSVK	GRAAGTFDS	no signal	0/3
GFCLNSYGIS	VIESDGRRTFYGDSVK	GRAAGTLDS	no signal	0/3
GFTLNSYGWS	VIYSDGRRTFYGSSVK	GYAAGTFDS	no signal	0/3

Continued, with the values leading:

mean log10 Kd (nM)	seen in	CDR-H1	CDR-H2	CDR-H3
no signal	0/3	GFTLNSYGIS	VIYSDGRRRFYGDSVK	GRAAGLFDK
no signal	0/3	CFTLNSYGIS	VIYSDGRRTKYGDSVK	GRAAGTFDS
3.82	1/3	GFTLNSYGIS	VIYSDGRRTFYGDSVK	QRAAGIFES
3.60	1/3	HFTLNSYGIV	VIYSKGRRTFYGDSVK	GRAAGTFDS
no signal	0/3	IFTLNPYGIS	TIYSDGRRTFYGDSVK	GRAAGTFDS
2.62	3/3	GFTLNSYGIS	VIYSANRRTFGGDSVK	GRAAGTFDS
no signal	0/3	AFTLNSYGIS	VIYSPGGRTFYGDSVK	GRAAGTFDS
no signal	0/3	GFTLNSYGIS	VILSDGRRSFYGDSVK	GRAAGTFDS
4.62	2/3	GFTLNSYGIS	VIYSDGRPTFYGDSHK	GRAAGFFDS
no signal	0/3	GFTLWSYGNS	VIYSDGRRTFYRDSVK	GRAAGTFDS
no signal	0/3	GFTWNSYGIR	VIYSDGRRTFYGDSVK	GRARGTFDS
5.40	1/3	GYTLNSYGIS	VIHSQGRRTFYGDSVK	GRAAGTFDS
no signal	0/3	GFYLNSYGIS	VIYSDGFWTFYGDSVK	GRAAGTFDS
2.97	1/3	GFTLNSYGTD	VIYGDGRRTFYGDSVK	GRAAGTFDS
no signal	0/3	GFTLNSYAIT	VIYSDGRRTFYGDSVK	GRAAGTQDS
no signal	0/3	CFTLNSYGIS	VIPKDGRRTFYGDSVK	GRAAGTFDS
2.88	2/3	GFTLNSYGIS	VIYSDGWRTFYGDSVK	GRAAGSCDS
no signal	0/3	GFTLNSYGIS	VIYQDGRRTFYGYSVK	GRAAGTGDS
no signal	0/3	GFELNSYGIS	VIYSDGRRTFYGDSVK	GRAAGGKDS
4.89	1/3	GFTLNSYHIS	VIYSDGRRTFYGDSVK	GRANQTFDS
2.45	3/3	VVTLQSYGIS	VIYSDGRRTFYGDSVK	GRAAGTFDS
5.43	1/3	GFTLNSYGIS	VIYSDGRRTFYGDSNK	GRAAGRFTS
no signal	0/3	GFTRNSYGIS	VIYSDGRRTFKGDSVK	GRAAGTFDD
0.20	3/3	GFTLNSYGIS	VIYSDGRRTFYVDSVK	GTAAGTFDS
4.27	1/3	GFTLNSYGIS	VIYSDGRRTFYGFKVK	GRAAGHFDS
4.89	2/3	GFTLNSYGAL	VIYSDGRRTFYGDSLK	GRAAGTFDS
4.55	2/3	GFTLNSYGIS	VIYSDGRRTFYGDSVK	GRDAHTFDS
2.53	2/3	GFTLNSYGIS	VIYSDGRQTFYGDSVK	SRAMGTFDS
no signal	0/3	GFTLNAYGIS	VIYSDGRRTFYGDSGK	GEAAGTFDS
no signal	0/3	GETSNSYGIS	VIYSDGRRTFYGDSVK	GRASGTFDS
no signal	0/3	GFTWNSYQIS	VIYSDGRRTFYGDSVK	GRAAGTPDS
no signal	0/3	AFTLNSYGIS	VILSDGRRTFYGDSVK	PRAAGTFDS
5.42	3/3	GFTLNSYGFS	VIYSDGRQTLYGDSVK	GRAAGTFDS